Chains of the proteins cited; added tags and fusions are not shown.
UniProt Q02750, whole entry: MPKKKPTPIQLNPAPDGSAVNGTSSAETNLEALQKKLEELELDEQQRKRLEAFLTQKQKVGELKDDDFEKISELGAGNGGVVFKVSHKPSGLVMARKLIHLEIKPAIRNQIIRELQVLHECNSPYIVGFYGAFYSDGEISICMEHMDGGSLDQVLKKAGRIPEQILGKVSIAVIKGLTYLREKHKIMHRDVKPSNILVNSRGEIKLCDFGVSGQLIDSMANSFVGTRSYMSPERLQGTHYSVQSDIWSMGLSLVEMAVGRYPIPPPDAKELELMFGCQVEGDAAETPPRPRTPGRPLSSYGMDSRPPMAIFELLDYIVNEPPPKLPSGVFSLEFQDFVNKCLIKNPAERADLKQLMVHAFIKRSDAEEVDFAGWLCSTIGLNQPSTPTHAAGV

In US20250387379A1, “ARYL-ANILINE AND HETEROARYL-ANILINE COMPOUNDS FOR TREATMENT OF SKIN CANCERS” (NFLECTION THERAPEUTICS, INC., priority 2018, published 2025):

Molecular target: MEK1 (Homo sapiens (Human), UniProt Q02750)
Experiment: MEK Inhibition Assay-1 (33P-ATP, P81 filter-binding; Example 4)
Settings: read-out: Assay 1: biochemical MEK IC50, Table 10, formula (IV)
Protocol: The following procedure can be used to measure biochemical activity. MEK1 inhibitory activity of compounds were tested using the following procedure. […] Nat Biotechnol. 2011, 29(11), 1039-45.
• Reaction buffer: 20 mM Hepes (pH 7.5), 10 mM MgCl2, 1 mM EGTA, 0.02% Brij35, 0.02 mg/mL BSA, 0.1 mM Na3VO4, 2 mM DTT, 1% DMSO • Enzyme: MEK1, Invitrogen cat #PV3303 • N-terminal His-tagged recombinant human full length protein, expressed in insect cells. Activated in vitro by RAF1. MW=49.2 kDa, GenBank Accession No. NP_002746. • Substrate: 5 μM ERK2 (K52R), • Kinase-dead mutant, (GenBank Accession No. NM_0011949), aa2-358 with N-terminal His6 tag, MW=43.63 kDa, expressed in E. coli.
The substrate was prepared in freshly prepared Reaction Buffer. The kinase was delivered into the substrate solution and gently mixed. Test compounds were delivered in 100% DMSO into the kinase reaction mixture by Acoustic technology (Echo550; nanolitter range), and incubated for 20 min at room temperature. ^33P-ATP was delivered into the reaction mixture to initiate the reaction. The reaction mixture was incubated for 2 hours at room temperature. Kinase activity was detected by P81 filter-binding method.

## CC(=O)c1sc(Nc2ccc(I)cc2F)c(C(=O)NOCC2COC2)c1C
  IC50: 1000 to 5000 nM
